Reported properties for industrial, environmental and drug-like chemicals

Values as listed in the OPERA 2.9 repository of K. Mansouri.

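The OPERA project collected these measurements from public sources as training and test data for property models. One number stands for a compound and property, with no spread given. Method, purity and exact conditions of the single measurements are not given. A value may pool stereoisomers or salt forms, and the file does not say which form was measured. Some entries may be limits or estimates that an upstream database listed as plain numbers.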

Melting points are in °C. The octanol-water partition coefficient is given as log10; larger values mean a more lipophilic compound. Water solubility is log10 of mol/L, nominally at 25 °C; higher is more soluble. Vapor pressures (log10 mmHg) refer to near room temperature, 15 to 30 °C; higher is more volatile. Henry's law constant (air-water partitioning) is log10 of atm·m3/mol, nominally at 25 °C. Intrinsic clearance (human, µL/min per 10^6 hepatocytes): higher is faster turnover, and 0 stands for none detected. "n/a" marks a cell with nothing listed here.

CC(=O)O[C@H]1CC[C@@]2(C)C(=CC[C@H]3[C@@H]4CC[C@H]([C@H](C)CCCC(C)C)[C@@]4(C)CC[C@@H]32)C1 [Cholest-5-en-3-ol (3.beta.)-, 3-acetate] has log solubility -8.591 (log10 mol/L) and log VP -9.218 (log10 mmHg).
C=C(C)C(=O)OCCCCCCCCCCCCOC(=O)C(=C)C [1,12-Dodecanediyl bismethacrylate] has melting point 5.5 °C and log solubility -7.484 (log10 mol/L) and log VP -5.061 (log10 mmHg).
CON=C1COc2ccccc21 [3(2H)-Benzofuranone, O-methyloxime] has melting point 28.1 °C and log VP -1.321 (log10 mmHg).
CC(C)(C)c1cc(O)ccc1O [tert-Butylhydroquinone] has log Kow 1.725 and log solubility -1.84 (log10 mol/L).
Cc1cc[nH]n1 [3-Methylpyrazole] has log Kow 0.475 and log VP 0.198 (log10 mmHg).
CC(C)=COC(=O)c1ccccc1C [3-Methyl-2-butenyl salicylate] has log Kow 4.49 and log solubility -4.404 (log10 mol/L).
CCc1nc(N)nc(N)c1-c1ccc(Cl)cc1 [Pyrimethamine] has log solubility -3.4 (log10 mol/L) and log VP -7.206 (log10 mmHg) and intrinsic clearance 2.768 µL/min/10^6 cells.
Brc1ccc(Oc2ccc(Br)c(Br)c2)cc1 [BDE-37] has melting point 48.5 °C and log Kow 5.52 and log VP -5.115 (log10 mmHg).
CCCCc1ccc(O)cc1O [4-Butylresorcinol] has melting point 51.5 °C and log Kow 2.8.
O=C(O)[C@H](CC(=O)N1C[C@H]2CCCC[C@H]2C1)Cc1ccccc1 [Mitiglinide] has log Kow 2.9 and log solubility -3.649 (log10 mol/L).
C=C[Si](O/N=C(\C)CCC)(O/N=C(\C)CCC)O/N=C(\C)CCC [2-Pentanone, O,O',O''-(ethenylsilylidyne)trioxime] has melting point -62.5 °C and log Kow 1.25.
CCCC/C=C\CCCCCCCCOC(C)=O [(Z)-9-Tetradecenyl acetate] has log solubility -6.71 (log10 mol/L) and log VP -5.893 (log10 mmHg) and log Henry constant -2.403 (log10 atm·m3/mol).
CN(C/C=C/c1ccccc1)Cc1cccc2ccccc12 [Naftifine] has log Kow 5.4 and log solubility -6.099 (log10 mol/L).
C=CC(=O)Oc1ccc(C(=O)Oc2ccc(C(=O)O[C@@H]3CO[C@H]4[C@@H]3OC[C@H]4OC(=O)c3ccc(OC(=O)c4ccc(OC(=O)C=C)cc4)c(OC)c3)cc2OC)cc1 has melting point 80 °C and log Kow 5.02 and log solubility -6.747 (log10 mol/L) and log VP -7.974 (log10 mmHg).
CCCCCCCCCCCC(=O)NCCO [Laurylethanolamide] has log Kow 3.8 and log VP -4.18 (log10 mmHg).
CC1Cc2ccccc2N1NC(=O)c1ccc(Cl)c(S(N)(=O)=O)c1 (stereo not given) [Indapamide] has log Kow 2.2 and log solubility -4.029 (log10 mol/L).
CCC(C)CCCC(C)(C)O (stereo not given) [2,6-Dimethyloctan-2-ol] has log Kow 3.2 and log solubility -2.749 (log10 mol/L) and log VP -1.156 (log10 mmHg).
CCCCCCCCCCCCCCCCCCNC(=O)CCCCCCCCCCCCCCCCC [Octadecanamide, N-octadecyl-] has melting point 85.1 °C and log Kow 6.1 and log solubility -7.028 (log10 mol/L).
CCc1cccc2c(CCO)c[nH]c12 [7-Ethyltryptophol] has log Kow 2.3 and log solubility -1.915 (log10 mol/L) and log VP -5.512 (log10 mmHg).
OC(CCCN1CCCCC1)(c1ccccc1)c1ccccc1 [Diphenidol] has log Kow 4.3 and log solubility -4.722 (log10 mol/L).

The last 2 entries again:

| structure (SMILES) | name | melting point (°C) | log Kow | log solubility (log10 mol/L) | log VP (log10 mmHg) | log Henry constant (log10 atm·m3/mol) | intrinsic clearance (µL/min/10^6 cells) |
|---|---|---|---|---|---|---|---|
| CCc1cccc2c(CCO)c[nH]c12 | 7-Ethyltryptophol | n/a | 2.3 | -1.915 | -5.512 | n/a | n/a |
| OC(CCCN1CCCCC1)(c1ccccc1)c1ccccc1 | Diphenidol | n/a | 4.3 | -4.722 | n/a | n/a | n/a |